Test results: PubChem BioAssay AID463165 (Johns Hopkins Ion Channel Center, 2010)
The entries are a selection whose mix differs from that of the whole data set. Active and inactive are the calls of the source.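 The calls were made as follows: active = B-score, a plate-corrected calcium signal, over three deviations above library mean, with baseline fluorescence within five deviations of library mean; inactive = the rest.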

Sequences of proteins named here, by UniProt entry; tags and fusion partners are left off. A change or cut given only in a name is not applied to a line headed by its entry.
UniProt P49798: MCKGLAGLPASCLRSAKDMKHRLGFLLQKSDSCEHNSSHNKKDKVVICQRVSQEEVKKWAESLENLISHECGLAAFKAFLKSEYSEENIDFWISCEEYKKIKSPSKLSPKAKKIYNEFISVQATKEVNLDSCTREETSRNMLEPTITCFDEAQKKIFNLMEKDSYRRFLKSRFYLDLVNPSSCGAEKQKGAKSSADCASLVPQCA

Biological target: Regulator of G-protein signaling 4 (Homo sapiens) (UniProt P49798)
Experiment: blockers of RGS4 function in M3R calcium signaling – cell-based, HEK293 M3R inducible RGS4, calcium flux, primary screen (AID 463165);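 also: RGS4 expression induced by doxycycline in cells with stable M3 receptor; B-score is computed from the integrated fluorescence ratio over baseline after carbachol; higher B-score means a larger calcium signal and so more RGS4 inhibition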
Conditions: Fluo-4 calcium flux, at 10 µM, stronger effect = higher value, triggered by carbachol at its EC20

Row | Structure (SMILES) | B-score
1 | CCc1nc2c(n1)c1c(non1O)c1c2no[n+]1[O-] | active: 5.68
